The experiment relates to SKBR3 cells. Description: SKBR3 Cell Viability Assay. The note with it: read-out: MCL-1 CV SKBR3 EC50, 72 hours, CellTiter Glo.

Our source for the EC50 values is patent US10988451B2, “MCL-1 inhibitors” (Gilead Sciences, Inc., priority 2018, dated 2021).

Each structure is given as a SMILES string. pEC50: −log10 of the molar value.

Usually pEC50 stands for the negative decadic logarithm of the EC50, by convention in mol/L. In the case of `CCC(=O)N[S@]1(=O)=NC(=O)c2ccc3c(c2)N(C[C@@H]2CC[C@H]2[C@@H](OC)CCCCC1)C[C@@]1(CCCc2ccccc21)CO3`, the negative-log EC50 (pEC50) is 5.00.
